The results in this text go back to patent US6664231B1, “Anti-fungal peptides” (priority 1993, dated 2003).

In data set [1] the test system is Candida albicans (SLU-1 and ATCC strains). Type of data set: cell-based. Put shortly:
(§1)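 Alamar Blue redox dye assay: yeasts grown overnight in Sabouraud's dextrose broth, filamentous fungi harvested by irrigating confluent plates; cells washed, set to 5.0×10^3/mL in fresh SDB. Dye color/OD590 used to pick wells for plating; plates grown 18-48 h; MFC taken as 99.9% killing of starting inoculum.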

Data set [2] has as its system Candida glabrata ATCC 2001. The class given is cell-based. The essentials:
as §1

Data set [3] deals with Candida parapsilosis ATCC 22019. Type of data set: cell-based. The essentials: as §1
For data set [4], the system named is Fusarium solani ATCC 36031. The class given is cell-based. The essentials: as §1
Data set [5] deals with Trychophyton rubrum ATCC 28188. Type of data set: cell-based. Put shortly: as §1
The next data set relates to Candida glabrata. Type of data set: cell-based. On the procedure:
(§2) In additional experiments, a fluorescence-activated cell sorter (FACS) based assay was developed to test the fungicidal activity of the peptides. […] Difco) agar. Several colonies were picked from the agar plate and inoculated into 5 mL of Sabouraud's Dextrose media in a sterile 10 mL polypropylene tube. The fungal cultures were incubated for about 18 hours at 30° C. […] The culture were centrifuged at 3000 rpm for 5 minutes (Sorvall RT 6000B). After centrifugation, the supernatant was decanted leaving the fungal pellets in the centrifuge tubes. The pellets were resuspended in 15 mL of SDB. Both suspensions were combined into one tube and mixed to generate a stock culture. […] After determining the concentration of the stock, appropriate dilutions were made with Sabouraud's Dextrose media to obtain 100 mL of 1×10^6 cell/mL. […] After the 1 hour incubation, all the tubes were centrifuged at 3000 rpm for 5 minutes. […] Louis, Mo.) in Dulbecco's PBS (DPBS, GIBCO, Grand Island, N.Y.) except the autofluorescence control, which was resuspended in DPBS alone. The tubes were mixed and incubated in the dark at room temperature for at least 20 minutes. […] The settings were adjusted appropriately to the following approximate parameters: Cells were analyzed (10,000 cells/tube) and their respective fluorescence determined. […] The population of dead (i.e., propidium iodide stained) fungal cells was determined by a fluorescence threshold between the negative control and positive control.

For the next data set, the system named is Candida lusitaniae. Type of data set: cell-based. On the procedure: as §2
Data set [6] has as its system Crytococcus Neoformans 13690. The class given is cell-based, Cryptococcus neoformans. How it is done: as §2
A short description of another data set: in vitro. Type of data set: in vitro ADME, rat or human serum. As to conditions: serum, half-life of peptide in serum as detected by HPLC analysis; read-out: HPLC Peptide in Serum t ½ (converted). How it is done:
For these serum stability experiments, peptides were prepared by solid phase peptide sythesis and purified to 94% or greater purity as described in Example 1. Blood was collected from metaphane anesthesized rats by aortic bleed into Vacutainer™ tubes and allowed to clot at room temperature for approximately 30 minutes, then centrifuged at 3000 rpm (about 1000×g) for 10 minutes at room temperature and the serum aspirated. In addition, frozen human serum (North American Biologics, Inc., Miami, Fla., cat. no. 2140, lot no. 94115) was thawed at room temperature and filtered through a 0.45 μm membrane before use.
A 1 mg/mL solution of an exemplary XMP peptide to be tested was added to an equal volume of either rat or human serum described above and maintained at 37° C. At 0, 1, 2, and 4 hours, 100 μL were removed and processed by solid phase extraction for HPLC analysis as follows. Serum samples were prepared for HPLC using C-18 Sep-Pak cartridges (1 mL cartridge with 100 mg of sorbent, Waters Corp., Milford, Mass.). One hundred μL of serum sample were added to an equal volume of 1% TFA and mixed for 30 seconds on a Vortex mixer. The sample was then applied to a C-18 Sep-Pak cartridge that had been conditioned by washing with 1 mL of methanol followed by 1 mL Milli-Q water. Weakly reed components were eluted by washing with 1 mL of 0. 1% TFA. The bound peptide was eluted with two volumes of 250 μL 80% acetonitrile/0.065% TFA.
The material eluted from the Sep-Pak cartridge was analyzed on a Michrom Ultaafast Microprotein Analyzer equipped with a 150 mm×1 mm, 5μ particle, 300 Å pore C-8 Zorbax column. The column oven was set to 40° C., the flow rate was 100 μL/minute, and injection volumes were typically 5-10 μL. HPLC was performed using 5% acetonitrile/0.1% TFA in water as mobile phase A, and 80% acetonitrile/0.065% TFA as mobile phase B. The eluate was monitored spectiophotometrically at 214 nm. Peptide standards were dissolved in mobile phase A at 0. 1 mg/mL. The gradient was 25-35% B/10 minutes followed by a 5 minute wash step of 100% B and reequilibration at 25% B for 10 minutes.

Consider `CC[C@H](C)[C@H](NC(=O)[C@H](CC(C)C)NC(=O)[C@H](Cc1c[nH]c2ccccc12)NC(=O)[C@H](CCCCN)NC(C)=O)C(=O)N[C@@H](CCC(N)=O)C(=O)N[C@@H](CC(C)C)C(=O)N[C@@H](Cc1ccccc1)C(=O)N[C@@H](Cc1c[nH]cn1)C(=O)N[C@@H](CCCCN)C(=O)N[C@@H](CCCCN)C(N)=O` [XMP.373], for which, in [1], the “Minimum Fungicidal Concentration, Candida albicans ATCC 10231” value amounted to 5.0 µg/mL; the “Minimum Fungicidal Concentration, Candida albicans ATCC 18840” value came out at 2.5 µg/mL; the “Minimum Fungicidal Concentration, Candida albicans ATCC 26555” value worked out at 1.25 µg/mL; the “Minimum Fungicidal Concentration, Candida albicans ATCC 44808” value stood at 2.5 µg/mL. In data set [1], the “Minimum Fungicidal Concentration, Candida albicans ATCC 90028” value came to 2.5 µg/mL and the “Minimum Fungicidal Concentration, Candida albicans SLU-1” value was found to be 2.5 µg/mL. In addition, in data set [2], the “Minimum Fungicidal Concentration, Candida glabrata ATCC 2001” value is 10.0 µg/mL. Besides, in data set [3], the “Minimum Fungicidal Concentration, Candida parapsilosis ATCC 22019” value is 10.0 µg/mL. For the same compound, the “Minimum Fungicidal Concentration, Fusarium solani ATCC 36031” value in [4] turned out to be 2.5 µg/mL. The “Minimum Fungicidal Concentration, Trychophyton rubrum ATCC 28188” value in [5] was determined as 2.5 µg/mL. For the same compound, in the data set with Candida glabrata, the “Candida glabrata IC50” value was 4.96 µg/mL. Also, in the data set with Candida lusitaniae, the “Candida lusitaniae IC50” value amounted to 1.11 µg/mL. For the same compound, the “Activity of Peptides on Crytococcus Neoformans 13690, IC50” value (shortened to “Activity of Peptides”) in [6] amounted to 0.87 µg/mL. The half-life at 0.5 mg/mL in the data set “in vitro” is 2.6 h.

`CC[C@H](C)[C@H](NC(=O)[C@H](CC(C)C)NC(=O)[C@H](Cc1c[nH]c2ccccc12)NC(=O)CNC(=O)[C@@H](N)CCCCN)C(=O)N[C@@H](CCC(N)=O)C(=O)N[C@@H](CC(C)C)C(=O)N[C@@H](Cc1ccccc1)C(=O)N[C@@H](Cc1c[nH]cn1)C(=O)N[C@@H](CCCCN)C(=O)N[C@@H](CCCCN)C(N)=O` [XMP.389]: in data set [1], the “Minimum Fungicidal Concentration, Candida albicans ATCC 10231” value was 5.0 µg/mL; the “Minimum Fungicidal Concentration, Candida albicans ATCC 18840” value came to 2.5 µg/mL; the “Minimum Fungicidal Concentration, Candida albicans ATCC 26555” value was 1.25 µg/mL; the “Minimum Fungicidal Concentration, Candida albicans ATCC 44808” value was 2.5 µg/mL. In [1], the “Minimum Fungicidal Concentration, Candida albicans ATCC 90028” value came out at 2.5 µg/mL and the “Minimum Fungicidal Concentration, Candida albicans SLU-1” value was determined as 2.5 µg/mL. Also, the “Minimum Fungicidal Concentration, Candida glabrata ATCC 2001” value in data set [2] turned out to be 5.0 µg/mL. Besides, the “Minimum Fungicidal Concentration, Candida parapsilosis ATCC 22019” value in [3] is 5.0 µg/mL. Also, the “Minimum Fungicidal Concentration, Fusarium solani ATCC 36031” value in data set [4] came to 1.25 µg/mL. Also, the “Minimum Fungicidal Concentration, Trychophyton rubrum ATCC 28188” value in data set [5] is 5.0 µg/mL. Also, the “Candida glabrata IC50” value in the data set on Candida glabrata was 4.64 µg/mL. Besides, in the data set with Candida lusitaniae, the “Candida lusitaniae IC50” value worked out at 2.26 µg/mL. Moreover, the “Activity of Peptides” value in data set [6] turned out to be 0.25 µg/mL. For the same compound, in the data set “in vitro”, the half-life at 0.5 mg/mL is 1.3 h.

On to `CC[C@H](C)[C@H](NC(=O)[C@H](CC(C)C)NC(=O)[C@H](Cc1c[nH]c2ccccc12)NC(=O)CNC(=O)[C@@H](NC(=O)[C@@H](N)CCCCN)C(C)C)C(=O)N[C@@H](CCC(N)=O)C(=O)N[C@@H](CC(C)C)C(=O)N[C@@H](Cc1ccccc1)C(=O)N[C@@H](Cc1c[nH]cn1)C(=O)N[C@@H](CCCCN)C(=O)N[C@@H](CCCCN)C(N)=O` [XMP.391], for which, in [1], the “Minimum Fungicidal Concentration, Candida albicans ATCC 10231” value amounted to 1.25 µg/mL; the “Minimum Fungicidal Concentration, Candida albicans ATCC 18840” value is 1.25 µg/mL; the “Minimum Fungicidal Concentration, Candida albicans ATCC 26555” value was 0.62 µg/mL; the “Minimum Fungicidal Concentration, Candida albicans ATCC 44808” value turned out to be 1.25 µg/mL. In addition, in data set [1], the “Minimum Fungicidal Concentration, Candida albicans ATCC 90028” value was 2.5 µg/mL and the “Minimum Fungicidal Concentration, Candida albicans SLU-1” value is 1.25 µg/mL. The “Minimum Fungicidal Concentration, Candida glabrata ATCC 2001” value in data set [2] turned out to be 5.0 µg/mL. In addition, the “Minimum Fungicidal Concentration, Candida parapsilosis ATCC 22019” value in [3] came out at 2.5 µg/mL. For the same compound, the “Minimum Fungicidal Concentration, Fusarium solani ATCC 36031” value in data set [4] is 0.31 µg/mL. In [5], the “Minimum Fungicidal Concentration, Trychophyton rubrum ATCC 28188” value is 2.5 µg/mL. Further, in the data set on Candida glabrata, the “Candida glabrata IC50” value came out at 2.85 µg/mL. In the data set on Candida lusitaniae, the “Candida lusitaniae IC50” value turned out to be 1.69 µg/mL. Besides, in data set [6], the “Activity of Peptides” value was 0.34 µg/mL. In the data set “in vitro”, the half-life at 0.5 mg/mL was 1 h.
